The values below are quoted from earlier work in US20190321331A1, “COMPRESSED TABLETS FOR GIVING BIRTH TO FEMALES” (priority 2016, published 2019).

For the data set the following is noted: one liter each, administered intravenously.

As for “Albumin: albumin solution; human plasma protein”, the “distribution of the solution among the three regions (intracellular, intercellular, blood vessels)” value is “not distributed and precipitated inside the blood vessels”.
